Measurements from ChEMBL document CHEMBL5380837, “Structure-Activity Relationships of Truncated 1'-Homologated Carbaadenosine Derivatives as New PPARγ/δ Ligands: A Study on Sugar Puckering Affecting Binding to PPARs” (J Med Chem, 2023).

Target: T1, Peroxisome proliferator-activated receptor alpha (Homo sapiens) (UniProt Q07869)
T1 sequence (whole entry): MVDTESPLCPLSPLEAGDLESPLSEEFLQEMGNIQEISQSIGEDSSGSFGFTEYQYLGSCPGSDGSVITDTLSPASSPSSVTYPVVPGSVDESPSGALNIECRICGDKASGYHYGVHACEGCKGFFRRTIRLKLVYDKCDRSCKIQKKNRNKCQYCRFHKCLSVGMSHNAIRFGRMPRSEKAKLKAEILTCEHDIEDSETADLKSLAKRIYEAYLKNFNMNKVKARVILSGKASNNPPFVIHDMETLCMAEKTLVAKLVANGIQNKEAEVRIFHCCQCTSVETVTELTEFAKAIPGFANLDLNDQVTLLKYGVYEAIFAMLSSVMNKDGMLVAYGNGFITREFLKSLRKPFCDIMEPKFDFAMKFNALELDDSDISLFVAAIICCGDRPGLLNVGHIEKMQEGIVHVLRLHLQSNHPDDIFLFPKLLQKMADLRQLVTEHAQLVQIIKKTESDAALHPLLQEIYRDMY
Test: Binding affinity to PPARalpha (unknown origin) at 30 uM by TR-FRET based LanthaScreen competitive binding assay relative to control

SMILES	Activity [%]
O[C@@H]1[C@H](O)[C@@H]2C[C@@H]2[C@H]1Cn1cnc2c(NCc3cccc(C(F)(F)F)c3)nc(Cl)nc21	3
O[C@@H]1[C@H](O)[C@@H]2C[C@@H]2[C@H]1Cn1cnc2c(NCc3cccc(I)c3)nc(Cl)nc21	7.3
O[C@@H]1C[C@@H]2C[C@]2(Cn2cnc3c(NCc4cccc(I)c4)nc(I)nc32)[C@@H]1O	2
O[C@@H]1C[C@@H]2C[C@]2(Cn2cnc3c(NCc4cccc(Cl)c4)nc(Cl)nc32)[C@@H]1O	6.1
O[C@@H]1[C@H](O)[C@@H]2C[C@@H]2[C@H]1Cn1cnc2c(NCc3cccc(I)c3)nc(I)nc21	20.6
O[C@@H]1C[C@@H]2C[C@]2(Cn2cnc3c(NCc4cccc(I)c4)nc(Cl)nc32)[C@@H]1O	3.9
O[C@@H]1[C@H](O)CS[C@H]1Cn1cnc2c(NCc3cccc(Cl)c3)nc(I)nc21	20.4
O[C@H]1[C@H](Cn2cnc3c(NCc4cccc(I)c4)nc(I)nc32)CC[C@H]1O	13.8

The remaining lines, values ahead:

Activity [%]	SMILES
5.4	O[C@@H]1[C@H](O)C=C[C@H]1Cn1cnc2c(NCc3cccc(Br)c3)nc(Cl)nc21
5.1	O[C@@H]1[C@H](O)C=C[C@H]1Cn1cnc2c(NCc3cccc(I)c3)nc(Cl)nc21
14	O[C@H]1[C@H](Cn2cnc3c(NCc4cccc(Br)c4)nc(Cl)nc32)CC[C@H]1O
11.6	O[C@@H]1[C@H](O)[C@@H]2C[C@@H]2[C@H]1Cn1cnc2c(NCc3cccc(Br)c3)nc(Cl)nc21
0.7	O[C@@H]1C[C@@H]2C[C@]2(Cn2cnc3c(NCc4cccc(Br)c4)nc(Cl)nc32)[C@@H]1O
6.5	O[C@H]1[C@H](Cn2cnc3c(NCc4cccc(I)c4)nc(Cl)nc32)CC[C@H]1O

Target: T2, Peroxisome proliferator-activated receptor delta (Homo sapiens) (UniProt Q03181)
T2 sequence (whole entry): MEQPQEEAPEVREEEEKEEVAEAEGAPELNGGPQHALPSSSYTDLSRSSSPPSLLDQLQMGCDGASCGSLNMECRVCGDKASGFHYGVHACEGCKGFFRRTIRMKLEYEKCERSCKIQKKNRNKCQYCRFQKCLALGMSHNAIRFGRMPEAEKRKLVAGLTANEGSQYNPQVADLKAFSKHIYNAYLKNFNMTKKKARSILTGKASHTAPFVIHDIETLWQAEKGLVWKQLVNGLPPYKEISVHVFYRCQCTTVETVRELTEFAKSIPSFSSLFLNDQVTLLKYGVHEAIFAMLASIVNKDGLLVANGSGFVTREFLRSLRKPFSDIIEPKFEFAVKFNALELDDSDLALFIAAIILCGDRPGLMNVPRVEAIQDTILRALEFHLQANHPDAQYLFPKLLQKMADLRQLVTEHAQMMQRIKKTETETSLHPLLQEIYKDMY
Test: Binding affinity to PPARdelta (unknown origin) at 30 uM by TR-FRET based LanthaScreen competitive binding assay relative to control

Activity [%]	SMILES
9.3	CCc1ccc(CCOc2ccc(CC3SC(=O)NC3=O)cc2)nc1 (stereo not given)
